This is an account of results in PubChem BioAssay AID504326 (The Scripps Research Institute Molecular Screening Center, 2011).

Amino acid sequences for entries named in this document (tags omitted).
UniProt P35372, whole entry, looked up: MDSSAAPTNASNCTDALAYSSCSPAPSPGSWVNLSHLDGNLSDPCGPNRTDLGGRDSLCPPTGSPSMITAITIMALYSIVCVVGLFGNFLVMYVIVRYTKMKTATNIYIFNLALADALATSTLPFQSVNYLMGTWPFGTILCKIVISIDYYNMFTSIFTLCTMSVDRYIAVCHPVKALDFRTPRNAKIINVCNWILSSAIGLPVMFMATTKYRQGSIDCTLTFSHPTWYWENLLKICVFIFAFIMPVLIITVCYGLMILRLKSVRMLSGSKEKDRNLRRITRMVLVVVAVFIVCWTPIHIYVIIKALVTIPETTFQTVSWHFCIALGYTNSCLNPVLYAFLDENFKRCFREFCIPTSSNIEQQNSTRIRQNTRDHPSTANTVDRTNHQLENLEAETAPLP
UniProt P41143, whole entry, looked up: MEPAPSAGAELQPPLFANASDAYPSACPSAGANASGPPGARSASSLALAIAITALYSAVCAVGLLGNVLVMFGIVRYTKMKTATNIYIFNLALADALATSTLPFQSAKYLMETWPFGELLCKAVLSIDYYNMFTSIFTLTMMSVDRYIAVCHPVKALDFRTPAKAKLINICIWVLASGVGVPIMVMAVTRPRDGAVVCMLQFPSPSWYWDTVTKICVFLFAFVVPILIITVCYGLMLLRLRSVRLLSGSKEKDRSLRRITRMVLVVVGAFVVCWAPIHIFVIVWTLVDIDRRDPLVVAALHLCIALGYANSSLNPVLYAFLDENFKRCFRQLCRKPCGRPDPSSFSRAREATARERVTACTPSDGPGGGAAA

The entries are a selection whose mix differs from that of the whole data set. Activity calls are given as the source filed them. Cut-off read from the data, not from the text of the source: active = activation above about 18%; inactive = the rest.

This test deals with Mu-type opioid receptor (Homo sapiens) + Delta-type opioid receptor (Homo sapiens) (UniProt P35372+P41143). Description: inducers of mu-delta opioid receptor heterodimers – cell-based, luminescence, primary screen (AID 504326).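 Note: 0% = vehicle-treated cells and 100% = reference agonist.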 To be noted: cells, OPRM1-OPRD1 heterodimerization, at 9.3 µM, hits give high values.
For the compound `COc1cc(I)ccc1[As](=O)(O)O`, the activation is inactive: -0.02%.

Regarding `c1ccc(CN2CCC(Nc3nc(-c4ccccc4)nc4ccccc34)CC2)cc1`, the activation was inactive: 7.49%. In the case of `CC(O)CNc1nc2ccccc2n1CC(=O)N1CCN(Cc2ccccc2)CC1` (stereo not drawn), the activation is inactive: 0.47%. On to `CCCCNc1nc2ccccc2n1CC(=O)Nc1c(C)cccc1CC`, for which the activation is inactive: -0.93%. Consider `COc1cccc(NC(=O)[C@@H](NC(=O)N2CCn3c2nc2ccccc23)C(C)C)c1`, for which the activation was inactive: -0.35%.

Turning to `O=P1(N(CCCl)CCCl)OCCCN1CCCl` (stereo not drawn), the activation was inactive: -1.52%. Turning to `O=P1(N(CCCl)CCCl)Nc2ccccc2N1`, the activation was inactive: -2.49%.

As for `COc1ccc(CNC(=O)CCNC(=O)N2CCn3c2nc2ccccc23)cc1`, the activation was inactive: -2.62%.

Take `Cc1cc2ncn(C3CC(=O)N(C)C3=O)c2cc1C` (stereo not drawn): the activation was inactive: -2.48%.

Take `C=CCSc1nnc(NC(=O)Cn2cnc3c2c(=O)n(C)c(=O)n3C)s1`: the activation was inactive: 0.37%. Turning to `Cc1ccc2c(c1)C1CN(C)CCC1N2C(=S)Nc1ccc(Cl)cc1Cl` (stereo not drawn), the activation is inactive: -1.62%. In the case of `CSc1nc(N)nc2c1ncn2CC(=O)NCCCN1CCCC1=O`, the activation is inactive: -3.72%. In the case of `Cn1c(=O)c2c(nc(NCc3ccccc3)n2CC(N)=O)n(C)c1=O`, the activation is inactive: -2.09%. In the case of `O=C1C2CCCCC2C(=O)N1c1ccc(NC2CCN(Cc3ccccc3)CC2)c([N+](=O)[O-])c1` (stereo not drawn), the activation is inactive: -1.08%. For `O=C(OC1CN2CCC1CC2)C12CC3CC(CC(C3)C1)C2` (stereo not drawn), the activation is inactive: -2.86%. The same measure for `O=C(Cn1cnc2c(NCc3ccccc3)ncnc21)NCCCN1CCCC1=O`: inactive: -3.72%; for `CCn1cc(C(=O)N2CCn3c(nc4ccccc43)C2)c(=O)c2ccc(C)nc21`: inactive: -0.98%; for `Cn1c(=O)c2c(nc(Cl)n2CC(=O)N2CCCCC2)n(C)c1=O`: inactive: -2.44%.

Take `Cc1cc(=O)[nH]c(N[N+](=O)[O-])n1`: the activation is inactive: 0.49%. Then `c1ccc2c(c1)ncn2CCN1CCCCC1`, with inactive: 0.3%; and `Cn1c(=O)c2c(ncn2CC(=O)Nc2nccs2)n(C)c1=O`, with inactive: -2.28%. Turning to `Cc1ccccc1Oc1ccc2c(c1)[C@@H]1C[C@H](N(C)C(=O)c3ccc(C#N)cc3)[C@H]([C@H](C)O)C(=O)N1CC2`, the activation is inactive: -0.9%. Turning to `NC(=O)CC(NC(=O)Cc1ccc(Br)cc1)c1ccc(NC2CCN(Cc3ccccc3)CC2)c([N+](=O)[O-])c1` (stereo not drawn), the activation was inactive: 0.34%.

As to `O=C(Cn1cnc2ccccc21)NC(c1ccccc1)c1ccccc1`, the activation is inactive: -1.19%. Turning to `NC(=O)CS(=O)(=O)c1nc2ccccc2n1CC(=O)N1CCCCC1`, the activation is inactive: -0.84%. For the compound `Cc1ccc(S(=O)(=O)N2CCCCC2)cc1NC(=O)Cn1cnc2c1c(=O)n(C)c(=O)n2C`, the activation is inactive: -1.88%. As for `O=C(CCCCCNC(=O)N1CCn2c1nc1ccccc12)N[C@@H](C(=O)O)c1ccccc1`, the activation is inactive: -3.96%.

Turning to `Cc1c2c(nc3ccccc13)SC(C(Cl)Cl)C2` (stereo not drawn), the activation was inactive: 2.85%. As for `Cc1ccc(NC(=O)Cn2cnc3c(=O)n(C)c(=O)n(C)c32)c(C)c1`, the activation was inactive: 0.04%.

As to `CCC(=O)Nc1cccc(C(=O)/C=C/c2ccc(F)cc2)c1`, the activation was inactive: -0.86%. Then `Cc1ccc(Cn2nnnc2CN2CCC(n3nnc4cc(C)ccc43)CC2)cc1`, with inactive: 4.87%; and `Cc1cccc(CSc2nc3ccncc3n2CC(=O)Nc2cc(C)cc(C)c2)c1`, with inactive: -0.4%; and `Cn1c(=O)c2c(nc(CN3CCC(Cc4ccccc4)CC3)n2CCN2CCOCC2)n(C)c1=O`, with inactive: -0.15%. For `CC1CCN(C(=O)Cn2cnc3c2c(=O)n(C)c(=O)n3C)c2ccccc2S1` (stereo not drawn), the activation is inactive: -1.25%. In the case of `C[C@H](NC(=O)N1CCn2c1nc1ccccc12)C(=O)NC1CC1`, the activation was inactive: -1.08%. Then `O=C(Cn1c(C(F)(F)F)nc2ccccc21)N1CCCC1`, with inactive: -1.54%; and `Cc1ccc(-c2csc(NCCn3c(C)nc4cc(C(F)(F)F)ccc43)n2)cc1`, with inactive: 0.04%; and `COc1cc(NC(=O)Cn2cnc3c(OCc4ccccc4)ncnc32)cc(OC)c1OC`, with inactive: -0.63%.

On to `O=C(CCNC(=O)N1CCn2c1nc1ccccc12)NCc1ccc(F)cc1`, for which the activation is inactive: -1.06%. Regarding `O=C(OC1CN2CCC1CC2)c1cccc2[nH]cnc12` (stereo not drawn), the activation is inactive: -1.4%. Then `C=C(C)Cn1c(=O)c2c(nc3n2CCN3c2cccc(Cl)c2C)n(C)c1=O`, with inactive: -0.95%. With `CCN(CC)C(=S)SC(NC=O)C(Cl)(Cl)Cl` (stereo not drawn), the activation is inactive: 1.09%. For `O=C(Nc1nc2ccccc2n1CCN1CCOCC1)c1cn(-c2ccccc2)nc1-c1ccccc1`, the activation is inactive: -1.87%. The same measure for `O=C(Cn1c2[n+](c3ccc(C(F)(F)F)cc31)CCCCC2)Nc1c(F)cccc1F`: inactive: 1.53%; for `COC(=O)[C@H](CC(C)C)NC(=O)Cn1cnc2c(SC)nc(N)nc21`: inactive: -2.2%; for `Cn1c(=O)c2c(ncn2CC(=O)Nc2nc(-c3ccccc3Cl)cs2)n(C)c1=O`: inactive: 1.28%. For `CC1c2nc3ccccc3n2C(CC(=O)NCCCN2CCOCC2)C(=O)N1Cc1ccccc1` (stereo not drawn), the activation was inactive: -1.72%.

Turning to `COc1ccc(CCNC(=O)[C@@H](NC(=O)N2CCn3c2nc2ccccc23)C(C)C)cc1OC`, the activation was inactive: -1.03%. The same measure for `O=C(Cn1c(-c2ccccn2)nc2ccccc21)NCCN1CCOCC1`: inactive: 0.21%; for `O=[N+]([O-])c1cc([N+](=O)[O-])c(-c2ccn[nH]2)s1`: inactive: 7.33%. As to `O=C(Cn1cnc2c(NCc3ccccc3)ncnc21)NCCCc1ccccc1`, the activation was inactive: -2.46%. In the case of `Cc1nc2ccccc2n1C1CCN(Cc2nnnn2CCc2ccccc2)CC1`, the activation is inactive: 0.21%. Consider `Oc1ccccc1CNc1nc2ccccc2n1CCN1CCCCC1`, for which the activation was inactive: 0.36%. With `COC(=O)C1(C)COP(=O)(N2CCCCCC2)OC1` (stereo not drawn), the activation is inactive: -0.18%. For `CCC(C(=O)NC1CCCCC1)n1c(SCc2ccccc2F)nc2ccncc21` (stereo not drawn), the activation was inactive: -1.94%. Then `COC(=O)c1ccc(CNC(=O)Cn2cnc3c(SC)nc(N)nc32)cc1`, with inactive: -4.07%. Then `CC(C)c1ccc(OP(=O)(Nc2ccccn2)Oc2ccccc2F)cc1` (stereo not drawn), with inactive: 0.57%; and `c1csc(CNc2nc3ccccc3n2CCN2CCOCC2)c1`, with inactive: -2.78%.
